# Source: patent US20110009624A9, “BENZIMIDAZOLE COMPOUNDS HAVING GASTRIC ACID SECRETION INHIBITORY ACTION” (priority 2006, published 2011)
# Protein sequences, listed by entry. Tags and fused reporters are not part of them.
# UniProt P19156, whole entry: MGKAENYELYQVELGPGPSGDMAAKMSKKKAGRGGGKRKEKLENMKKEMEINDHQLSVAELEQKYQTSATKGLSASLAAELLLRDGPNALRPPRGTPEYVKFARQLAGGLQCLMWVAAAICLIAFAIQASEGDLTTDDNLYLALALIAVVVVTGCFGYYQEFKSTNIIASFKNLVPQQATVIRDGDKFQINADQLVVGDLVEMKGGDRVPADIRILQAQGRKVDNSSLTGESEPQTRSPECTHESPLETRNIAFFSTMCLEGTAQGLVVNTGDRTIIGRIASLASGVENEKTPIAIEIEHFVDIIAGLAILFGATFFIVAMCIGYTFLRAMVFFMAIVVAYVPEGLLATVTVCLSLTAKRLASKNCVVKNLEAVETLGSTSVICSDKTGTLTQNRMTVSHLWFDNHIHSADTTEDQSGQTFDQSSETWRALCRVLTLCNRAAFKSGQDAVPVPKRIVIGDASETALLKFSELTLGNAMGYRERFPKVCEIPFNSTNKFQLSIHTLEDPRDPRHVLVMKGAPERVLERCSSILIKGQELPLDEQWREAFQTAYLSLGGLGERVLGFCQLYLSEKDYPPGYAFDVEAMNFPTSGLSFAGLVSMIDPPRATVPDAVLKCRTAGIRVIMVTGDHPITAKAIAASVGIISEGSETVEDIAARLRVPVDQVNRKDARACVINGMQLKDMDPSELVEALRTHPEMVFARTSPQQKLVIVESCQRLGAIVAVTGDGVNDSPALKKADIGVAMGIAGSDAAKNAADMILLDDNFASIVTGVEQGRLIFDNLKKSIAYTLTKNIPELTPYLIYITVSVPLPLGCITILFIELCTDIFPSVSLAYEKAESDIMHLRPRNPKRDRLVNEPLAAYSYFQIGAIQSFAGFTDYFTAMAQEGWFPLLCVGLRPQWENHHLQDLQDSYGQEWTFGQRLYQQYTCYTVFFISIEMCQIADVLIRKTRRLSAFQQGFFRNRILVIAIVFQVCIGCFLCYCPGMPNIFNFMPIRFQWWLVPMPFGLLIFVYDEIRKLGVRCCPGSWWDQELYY
# UniProt P18434, whole entry partner: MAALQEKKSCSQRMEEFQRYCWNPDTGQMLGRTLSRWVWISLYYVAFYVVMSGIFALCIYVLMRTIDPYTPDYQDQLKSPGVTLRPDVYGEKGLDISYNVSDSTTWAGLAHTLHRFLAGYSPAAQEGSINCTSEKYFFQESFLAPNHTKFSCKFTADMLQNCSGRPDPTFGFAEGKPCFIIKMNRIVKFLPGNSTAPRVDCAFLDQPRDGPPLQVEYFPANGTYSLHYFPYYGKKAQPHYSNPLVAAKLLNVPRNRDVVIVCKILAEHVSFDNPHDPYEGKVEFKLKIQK
# Biological target: H+, K+-ATPase (Sus scrofa, UniProt P19156)
# Assay: H+, K+-ATPase activity inhibitory action
# Details: read-out: IC50 of H+, K+-ATPase activity; hog gastric mucosa enzyme, preincubation 30 minutes at 37° C., pH 6.1; tested form: sodium salt
# Procedure: H^+, K^+-ATPase Activity Inhibitory Action
# H^+, K^+-ATPase was prepared from a fundic gland area of fresh hog gastric mucosa using a variation of the Chang's method [Biochim. Biophys. Acta 464, 313 (1977)].
# (1) The sodium salt of 2-[[[4-[3-hydroxy-2-(hydroxymethyl)propoxy]-3,5-dimethylpyridin-2-yl]methyl]sulfinyl]-1H-benzimidazole (Example 15) and (2) 3-[3-hydroxy-2-(hydroxymethyl)propoxy]-2,4-dimethyl-5H-pyrido[1′,2′,4,5][1,2,4]thiadiazino[2,3-a]benzimidazolium hexafluorophosphate (Example 16) were selected for the test compounds, and each was used after dissolving in methanol.
# 10 μL aliquots of various concentrations of the test compounds or solvent were mixed into 200 μL of 50 μg/mL H^+, K^+-ATPase, 100 μL of 10 mmol/L Pipes-Tris (pH 6.1) and 190 μL of distilled water followed by incubating for 30 minutes at 37° C., adding 150 μL of 100 mmol/L KCl (or distilled water) and 10 μL of 100 μg/mL gramicidin, and further incubating for 10 minutes. […] The amount of inorganic phosphoric acid that was released during this 10 minute period was measured in compliance with the method of Yoda and Hokin (Biochem. Biophys. Res. Commun., 40, 880, 1970). […]
# Residual enzyme activity at each concentration of test compound was determined as the amount of H^+, K^+-ATPase activity as a percentage of the H^+, K^+-ATPase activity of a control group (solvent addition). […]
smiles,measurement,value
Cc1cnc(C[S+]([O-])c2nc3ccccc3[nH]2)c(C)c1OCC(CO)CO (stereo not shown),IC50,2.03 µM
